Laboratory results from patent US9624209B2, “Substituted phenylureas and phenylamides as vanilloid receptor ligands” (Gruenenthal GmbH, priority 2009, dated 2017).

The chains behind the UniProt entries cited, without tags or fusion partners.
UniProt O35433, whole entry: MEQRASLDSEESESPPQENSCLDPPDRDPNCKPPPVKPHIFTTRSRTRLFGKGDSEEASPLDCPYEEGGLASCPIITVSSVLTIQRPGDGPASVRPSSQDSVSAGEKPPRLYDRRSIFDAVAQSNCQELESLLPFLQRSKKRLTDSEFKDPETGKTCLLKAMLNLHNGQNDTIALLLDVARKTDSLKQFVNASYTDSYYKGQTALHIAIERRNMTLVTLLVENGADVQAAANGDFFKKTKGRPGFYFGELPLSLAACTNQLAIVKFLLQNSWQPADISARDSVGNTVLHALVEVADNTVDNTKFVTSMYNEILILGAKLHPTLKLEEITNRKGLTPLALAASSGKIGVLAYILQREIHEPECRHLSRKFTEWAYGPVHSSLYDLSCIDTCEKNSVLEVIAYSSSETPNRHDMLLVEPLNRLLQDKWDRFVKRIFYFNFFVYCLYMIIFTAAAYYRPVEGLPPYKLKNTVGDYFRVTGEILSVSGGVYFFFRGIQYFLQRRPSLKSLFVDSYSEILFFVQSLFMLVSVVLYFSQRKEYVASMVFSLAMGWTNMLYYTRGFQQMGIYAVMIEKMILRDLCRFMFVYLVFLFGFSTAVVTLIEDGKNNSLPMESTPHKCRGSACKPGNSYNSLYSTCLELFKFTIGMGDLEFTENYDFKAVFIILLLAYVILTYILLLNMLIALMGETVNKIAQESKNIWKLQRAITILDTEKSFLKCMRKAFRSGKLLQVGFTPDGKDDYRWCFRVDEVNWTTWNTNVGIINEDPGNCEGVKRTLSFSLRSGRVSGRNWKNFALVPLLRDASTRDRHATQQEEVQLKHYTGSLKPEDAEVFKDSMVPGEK

Biological target: T1, vanilloid receptor 1 (VR1/TRPV1 receptor) (Rattus norvegicus, UniProt O35433)
T1 construct: The vertebral column is removed from decapitated rats; from tissue; host or cells: primary cells from rat dorsal root ganglia (DRG)
Experiment: VR1/TRPV1 receptor affinity, NADA stimulus (rat)
Format: cell-based
Conditions: N-arachidonoyl dopamine

Compound `CC(C(=O)NCc1cc(C(C)(C)C)nn1-c1cccc(Cl)c1)c1ccc(NS(C)(=O)=O)c(F)c1` (stereo not shown) [Example 16, N-((3-tert-butyl-1-(3-chlorophenyl)-1H-pyrazol-5-yl)methyl)-2-(3-fluoro-4-(methylsulfonamido)phenyl)propanamide] has a Ki of 0.03 nM.
